One may read the ED50 as the midpoint of the dose-response relation. One may read the IC50 as the midpoint of a concentration-inhibition curve. Lower therefore signals greater potency in that assay. A word on the Ki: it is a dissociation constant, usually derived from enzyme kinetics or from competition with a known ligand. High values mean weaker binding, low ones tighter binding.

Amino acid sequences for entries named in this document (tags omitted). A change or cut given only in a name is not applied to a line headed by its entry.
UniProt P33534: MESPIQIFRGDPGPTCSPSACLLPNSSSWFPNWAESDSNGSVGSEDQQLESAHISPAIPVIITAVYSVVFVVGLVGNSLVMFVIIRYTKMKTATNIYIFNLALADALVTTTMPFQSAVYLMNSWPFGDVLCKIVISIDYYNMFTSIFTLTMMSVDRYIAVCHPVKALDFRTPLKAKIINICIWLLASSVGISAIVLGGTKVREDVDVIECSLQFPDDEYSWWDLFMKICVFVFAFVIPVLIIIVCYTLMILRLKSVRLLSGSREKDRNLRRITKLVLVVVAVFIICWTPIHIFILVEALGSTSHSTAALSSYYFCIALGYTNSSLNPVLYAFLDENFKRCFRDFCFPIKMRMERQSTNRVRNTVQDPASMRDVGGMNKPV
UniProt P42866, whole entry, looked up: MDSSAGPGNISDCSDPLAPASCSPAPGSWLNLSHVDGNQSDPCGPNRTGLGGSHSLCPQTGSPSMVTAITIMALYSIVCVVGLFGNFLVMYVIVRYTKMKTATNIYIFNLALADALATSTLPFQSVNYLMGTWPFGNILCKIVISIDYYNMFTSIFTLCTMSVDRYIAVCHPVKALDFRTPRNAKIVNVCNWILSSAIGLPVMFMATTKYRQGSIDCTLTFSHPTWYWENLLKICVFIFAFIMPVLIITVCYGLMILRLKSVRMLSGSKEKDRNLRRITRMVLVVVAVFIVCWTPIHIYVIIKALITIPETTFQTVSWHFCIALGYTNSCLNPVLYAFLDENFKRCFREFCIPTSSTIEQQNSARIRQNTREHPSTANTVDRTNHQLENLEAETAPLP

Experiment [1] relates to Mus musculus. The experiment is described as follows: In vivo analgesic activity for pressure stimulus modality using tail pinch test in female CF-1 mice administered subcutaneously.
The test system of experiment [2] is Mus musculus. The experiment is described as follows: In vivo analgesic activity for chemical irritation modality using HCl writhing test in female CF-1 mice administered subcutaneously. In general terms: An intraperitoneal irritant provokes the stretching counted in writhing tests.
The test system of experiment [3] is Mus musculus. Description: In vivo analgesic activity for heat stimulus modality using tail flick test in female CF-1 mice administered subcutaneously. For orientation: Thermal pain tests record how soon the animal reacts.
Experiment [4] has as its target Kappa-type opioid receptor (Mus musculus, UniProt P33534). The experiment is described as follows: Binding affinity against opioid receptor kappa using [3H]U-69,593 as a radioligand.
In experiment [5] the target is T1, Mu-type opioid receptor (Mus musculus, UniProt P42866). The experiment is described as follows: Binding affinity against opioid receptor mu using [3H]etorphine as a radioligand.
Experiment [6] has as its target T1, Mu-type opioid receptor. The experiment is described as follows: Binding affinity against Opioid receptor mu 1 using [3H]etorphine as a radioligand.

Consider `CN(C(=O)Cc1ccc(Cl)c(Cl)c1)[C@@H]1Cc2ccccc2C[C@H]1N1CCCC1.Cl`, for which the ED50 was determined as 2 mg/kg in experiment [1], 1.1 mg/kg in experiment [2] and 2 mg/kg in experiment [3].
Regarding `CN(C(=O)c1ccc(Cl)c(Cl)c1)[C@@H]1Cc2ccccc2C[C@H]1N1CCCC1`, the ED50 in experiment [1], in experiment [2] and in experiment [3] was over 100 mg/kg in each case. The compound further showed an IC50 in experiment [4] of 29 nM. The compound further displayed a Ki in experiment [5] of 374 nM.
As to `CN(C(=O)Cc1ccc(Cl)c(Cl)c1)[C@@H]1Cc2ccccc2C[C@H]1N1CCCC1`, the IC50 in experiment [4] came out at 5.2 nM. In experiment [5], this compound showed a Ki of over 1000 nM.
`CN(C(=O)Cc1ccc(Cl)c(Cl)c1)[C@@H]1Cc2cc3ccccc3cc2C[C@H]1N1CCCC1`: the ED50 in experiment [1], in experiment [2] and in experiment [3] was over 100 mg/kg each time. Further, the IC50 in experiment [4] was 145 nM. The compound further had a Ki in experiment [5] of over 1000 nM.
Take `CN(C(=O)Cc1ccc(Cl)c(Cl)c1)[C@@H]1c2ccccc2CC[C@H]1N1CCCC1`: the ED50 in experiment [1] was found to be 0.5 mg/kg; in experiment [2], 0.8 mg/kg; in experiment [3] it was 2 mg/kg. The compound also registered an IC50 in experiment [4] of 7.3 nM. In experiment [5], this compound returned an inhibitory constant (Ki) of over 1000 nM.
For the compound `CN(C(=O)Cc1ccc(Cl)c(Cl)c1)C1CCCCC1N1CCCC1` (centres undefined), the ED50 in experiment [1], in experiment [2] and in experiment [3] was 2.5 mg/kg throughout. The Ki in experiment [6] was over 1000 nM.
Take `CN(C)[C@@H]1CCc2ccccc2[C@H]1N(C)C(=O)Cc1ccc(Cl)c(Cl)c1`: the ED50 was 28 mg/kg in experiment [1], 25 mg/kg in experiment [2] and 28 mg/kg in experiment [3]. In experiment [4], this compound had an IC50 of 11.7 nM. The compound further registered a Ki in experiment [5] of over 1000 nM.
